We go through 1 compound from patent publication US20090042809A1, “Blood Pressure Lowering Protein Hydrolysates” (priority 2005, published 2009).

“Also recorded” adds a separate entry of the source.

In general, IC50 refers to the concentration needed to halve the response being measured.

The test system of data set [1] is ACE. The data set can be described thus: at-line ACE inhibition assay (HHL substrate, HPLC read-out). The format is biochemical. Conditions: at-line measurements used in the screening phase. The text has this: The presence of novel ACE inhibiting peptides in CDBAP was investigated by using 2-dimensional-chromatographic-separation combined with an at-line ACE inhibition assay and mass spectrometry for identification. In the first analysis the peptide mixture was separated on an ODS3 liquid chromatography (LC) column and ACE inhibition profiles were generated from the various fractions obtained. In a second analysis the fractions from the first column showing a high ACE inhibition were further separated on a Biosuite LC column using a different gradient profile. The fractions collected from this second column were split into two parts: one part was used for the at-line ACE inhibition measurement while the other part was subjected to MS and MS-MS analysis to identify the peptides present. […]
The 96 well plate was then analysed on a flash-HPLC-column. […] Hippuric acid (H) and HHL were monitored at 280 nm. The peak heights of H and HHL were measured and the ACE inhibition (ACEI) of each fraction was calculated according to the equation:
[formula] • ACEIα Percentage inhibition of the analyte • Dcw Degree of Cleavage by ACE of HHL to H and HL in water • Dca Degree of Cleavage of HHL to H and HL for the analyte The Degree of Cleavage was calculated by expressing the peak height of H as a fraction of the sum of the peak heights of H and HHL.

For data set [2], the system named is ACE. The data set can be described thus: modified Matsui ACE inhibition assay (Hip-His-Leu, TNBS). The format is biochemical. As for the experimental part: To determine the ACE inhibition activity of MAP and ITP, the chemically synthesised tripeptides were assayed according to the method of Matsui et al. (Matsui, T. et al. (1992) Biosci. Biotech. Biochem. 56: 517-518) with some minor modifications.
Each one of the four samples contained 75 μl 3 mM hippuryl histidine leucine (Hip-His-Leu, Sigma Chemicals) dissolved in a 250 mM borate solution containing 200 mM NaCl, pH 8.3. ACE was obtained from Sigma Chemicals. The mixtures were incubated at 37° C. and stopped after 30 min by adding 125 μl 0.5 M HCl. […] After incubation for 20 min. at 37° C., 4 ml 4 mM Na2SO3 in 0.2 M NaH2PO4 was added and the light absorbance at 416 nm was measured with UV/Vis spectrophotometer (Shimadzu UV-1601 with a CPS controller, Netherlands).
The amount of ACE inhibition (ACEI) activity was calculated as a percentage of inhibition compared with the conversion rate of ACE in the absence of an inhibitor according to the following formula: […]
wherein • Control 1=Absorbance without ACE inhibitory component (=max. ACE activity) [AU]. • Control 2=Absorbance without ACE inhibitory component and without ACE (background) [AU]. • Sample 1=Absorbance in the presence of ACE and the ACE inhibitory component [AU]. • Sample 2=Absorbance in the presence of the ACE inhibitory component, but without ACE [AU].

Data set [3] can be described thus: gastrointestinal treatment (GIT) simulating digestion with pepsin and pancreatin. Format: in vitro ADME, human. The method, then:
After consumption, dietary proteins and peptides are exposed to various digestive enzymatic processes in the gastrointestinal tract. In order to assess the stability of the newly identified bioactive peptides in the human gastrointestinal tract, the CDBAP preparation (prepared as described in Example 7) was subjected to a gastrointestinal treatment (GIT) simulating the digestive conditions typically found in the human body. Samples obtained after various incubation times in the GIT model system were analysed using the on-line HPLC-Bioassay-MS or HRS-MS system to quantify any residual MAP and ITP peptides. The GIT procedure was performed in a standardized mixing device incorporating a 100 ml flask (as supplied by Vankel, US). The temperature of the water bath was set to 37.5° C. and the paddle speed was chosen such that the sample was kept in suspension (100 rpm).
About 3.4 grams of CDBAP (protein level of approx 60%) was dissolved/suspended in 100 ml Milli-Q water. During gastric simulation 5 M HCl was used to decrease the pH. At the end of gastric simulation and during the duodenal phase 5 M NaOH was used to raise the pH.
The CDBAP suspension was preheated to 37.5° C. and 5 ml of the suspension was removed to dissolve 0.31 g of pepsin (Fluka order no. 77161). At t=0 min the 5 ml with the now dissolved pepsin was added back to the suspension. Then the pH of the CDBAP suspension was adjusted slowly by hand using a separate pH meter according to the following scheme:
t=20 min pH decreased to 3.5 t=40 min pH to 3.0 t=50 min pH to 2.3 t=60 min pH to 1.8 t=65 min pH raised to 2.7 t=75 min pH to 3.7 t=80 min pH to 5.3 […]
Then the samples were transferred into a beaker and were placed in a microwave till boiling. […] The total N concentration of the powder as obtained was determined and converted to protein level using the Kjeldahl factor of casein (6.38). […] The levels of MAP and ITP surviving the proteolytic treatment according to the GIT procedure were determined as described in Example 7 and the data obtained are shown in Table 10.

Turning to `CSCC[C@H](N)C(=O)N[C@@H](C)C(=O)N1CCC[C@H]1C(=O)O` [MAP, Met-Ala-Pro], the IC50 in the data set with ACE [1] came to 3800 nM; in the data set on ACE [2] (as restated in the description, read-out: IC50 value in the Modified Matsui test), 500 nM; with ACE [2] (chemically synthesized tripeptides, read-out: IC50 value, Modified Matsui assay) it was 400 nM. The “Concentration of tripeptide in CDBAP before GIT procedure” value in data set [3] (CDBAP (Example 7), before passage) was 2851.4 μg g^−1 powder. In addition, the “Concentration of tripeptide in CDBAP after GIT procedure” value in data set [3] (CDBAP after GIT, pepsin then pancreatin, 125 min, 37.5° C.) is 3095.8 μg g^−1 powder. In data set [3] (simulated gastro-intestinal digestion), the “resistance against GIT digestion” value is on record as “high resistance; also recorded: resist gastrointestinal proteolytic degradation; also recorded: survive”.
